{"sequences": {"note": "Chains of the proteins cited; added tags and fusions are not shown. Lines headed by an entry give the natural chain unless they say otherwise; changes in a name come on top.", "UniProt Q12809": "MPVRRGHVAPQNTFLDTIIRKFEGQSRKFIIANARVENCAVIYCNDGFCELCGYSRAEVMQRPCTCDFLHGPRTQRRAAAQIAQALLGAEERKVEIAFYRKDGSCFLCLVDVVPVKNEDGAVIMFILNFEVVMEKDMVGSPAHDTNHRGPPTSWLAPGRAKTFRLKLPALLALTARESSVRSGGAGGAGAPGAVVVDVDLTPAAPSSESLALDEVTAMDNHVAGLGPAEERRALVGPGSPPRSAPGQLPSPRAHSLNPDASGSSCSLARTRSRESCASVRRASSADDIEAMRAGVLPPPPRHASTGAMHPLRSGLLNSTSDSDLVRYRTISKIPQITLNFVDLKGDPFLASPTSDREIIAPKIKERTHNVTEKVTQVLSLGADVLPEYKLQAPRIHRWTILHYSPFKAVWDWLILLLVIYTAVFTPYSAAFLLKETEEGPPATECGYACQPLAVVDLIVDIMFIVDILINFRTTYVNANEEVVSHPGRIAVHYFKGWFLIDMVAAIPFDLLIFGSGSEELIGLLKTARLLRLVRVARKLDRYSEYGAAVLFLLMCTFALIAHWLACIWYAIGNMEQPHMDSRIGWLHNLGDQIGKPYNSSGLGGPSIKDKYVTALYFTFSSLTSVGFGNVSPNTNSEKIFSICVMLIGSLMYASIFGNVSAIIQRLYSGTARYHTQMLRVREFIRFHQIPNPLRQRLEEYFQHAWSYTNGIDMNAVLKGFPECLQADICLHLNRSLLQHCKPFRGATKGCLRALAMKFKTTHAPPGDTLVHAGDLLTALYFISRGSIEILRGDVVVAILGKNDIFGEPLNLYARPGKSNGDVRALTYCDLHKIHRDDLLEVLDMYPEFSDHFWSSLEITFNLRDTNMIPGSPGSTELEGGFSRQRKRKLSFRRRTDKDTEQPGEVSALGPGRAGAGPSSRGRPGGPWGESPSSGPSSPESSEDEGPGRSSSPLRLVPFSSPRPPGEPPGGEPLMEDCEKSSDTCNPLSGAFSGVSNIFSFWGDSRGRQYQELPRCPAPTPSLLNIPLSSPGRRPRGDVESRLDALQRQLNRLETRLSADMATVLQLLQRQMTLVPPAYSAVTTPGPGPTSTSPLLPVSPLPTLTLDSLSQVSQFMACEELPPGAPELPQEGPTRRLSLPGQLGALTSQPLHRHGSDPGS"}, "source": "ChEMBL document CHEMBL1130298", "about": "“Class III antiarrhythmic activity in vivo by selective blockade of the slowly activating cardiac delayed rectifier potassium current IKs by (R)-2-(2,4-trifluoromethyl)-N-[2-oxo-5-phenyl-1-(2,2,2-trifluoroethyl)- 2, 3-dihydro-1H-benzo[e][1,4]diazepin-3-yl]acetamide” (J Med Chem, 1997)"}
{"target": "Voltage-gated inwardly rectifying potassium channel KCNH2 (Homo sapiens, UniProt Q12809)", "experiment": "Inhibition of Ikr current in isolated guinea pig myocytes during a 0.5 s voltage clamp step from -50 to -10 mV.", "assay_type": "functional, cell-based, Cavia porcellus", "conditions": "target entry is the homologue from another species", "units": {"IC50": "µM"}}
{"compound": "O=C(Cc1ccc(Cl)cc1Cl)N[C@@H]1N=C(c2ccccc2)c2ccccc2N(CC(F)(F)F)C1=O", "IC50": 2.4}
{"compound": "CN1C(=O)[C@H](NC(=O)C(N)Cc2ccccc2)N=C(c2ccccc2)c2ccccc21", "note": "(stereo not given in full)", "IC50": 8.8}
{"compound": "Cc1cccc(NC(=O)N[C@@H]2N=C(c3ccccc3)c3ccccc3N(C)C2=O)c1", "note": "[L-365260]", "IC50": 5}
{"compound": "O=C(Cc1ccc(C(F)(F)F)cc1C(F)(F)F)N[C@@H]1N=C(c2ccccc2)c2ccccc2N(CC(F)(F)F)C1=O", "note": "[L-768673]", "IC50": 6}
{"compound": "Cc1cccc(NC(=O)N[C@H]2N=C(c3ccccc3)c3ccccc3N(C)C2=O)c1", "IC50": 10}
